Data reported in patent US10017555B2, “Long-acting blood sugar decreasing fusion protein” (Genor Biopharma Co., Ltd., priority 2013, dated 2018).

T1: GLP-1R on the surface of β-TC-6 cells (Mus musculus, UniProt O35659)
T1 construct: host or cells: β-TC-6 mouse beta pancreatic tumor cells (fixed)
T1 sequence (O35659 22-463): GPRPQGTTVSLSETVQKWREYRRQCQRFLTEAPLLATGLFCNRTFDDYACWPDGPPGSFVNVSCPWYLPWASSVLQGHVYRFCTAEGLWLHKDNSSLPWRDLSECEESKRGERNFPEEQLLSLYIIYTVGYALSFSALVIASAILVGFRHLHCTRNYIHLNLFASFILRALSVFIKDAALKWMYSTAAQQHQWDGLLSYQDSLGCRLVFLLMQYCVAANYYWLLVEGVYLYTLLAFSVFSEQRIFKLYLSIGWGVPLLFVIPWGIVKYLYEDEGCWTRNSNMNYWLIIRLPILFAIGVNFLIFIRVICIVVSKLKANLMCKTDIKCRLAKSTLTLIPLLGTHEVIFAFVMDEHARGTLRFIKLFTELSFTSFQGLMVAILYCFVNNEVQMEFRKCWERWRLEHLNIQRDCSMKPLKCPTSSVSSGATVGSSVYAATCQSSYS

B1: GLP-1-Fc-3: Human GLP-1 (7-37) mutant fused via peptide linker to IgG2 Fc, SEQ ID NO: 6, hinge VECPPCP, C-terminal K deleted (protein)
chain: MELGLSWIFLLAILKGVQCHGEGTFTSDVSSYLEEQAAKEFIAWLVKGGGGGGGSGGGGSGGGGSVECPPCPAPPVAGPSVFLFPPKPKDTLMISRTPEVTCVVVDVSHEDPEVQFNWYVDGVEVHNAKTKPREEQFNSTFRVVSVLTVVHQDWLNGKEYKCKVSNKGLPAPIEKTISKTKGQPREPQVYTLPPSREEMTKNQVSLTCLVKGFYPSDIAVEWESNGQPENNYKTTPPMLDSDGSFFLYSKLTVDKSRWQQGNVFSCSVMHEALHNHYTQKSLSLSPG
B2: GLP-1-Fc-1: Human GLP-1 (7-37) mutant fused via peptide linker to IgG2 Fc, SEQ ID NO: 4, hinge VECPPCP (protein)
chain: MELGLSWIFLLAILKGVQCHGEGTFTSDVSSYLEEQAAKEFIAWLVKGGGGGGGSGGGGSGGGGSVECPPCPAPPVAGPSVFLFPPKPKDTLMISRTPEVTCVVVDVSHEDPEVQFNWYVDGVEVHNAKTKPREEQFNSTFRVVSVLTVVHQDWLNGKEYKCAVSNKGLPAPIEKTISKTKGQPREPQVYTLPPSREEMTKNQVSLTCLVKGFYPSDIAVEWESNGQPENNYKTTPPMLDSDGSFFLYSKLTVDKSRWQQGNVFSCSVMHEALHNHYTQKSLSLSPGK

Biological target: T1, GLP-1R on the surface of β-TC-6 cells
Test: In vitro binding activity of the fusion protein to β-TC-6 cells
Conditions: fixed β-TC-6 cells, 4-fold dilutions from 500 μg/ml, absorbance 450/570 nm, FIG. 4
Description: An assay for the direct binding activity of the fusion protein to GLP-1 receptor (GLP-1R)-positive mouse beta pancreatic tumor cells (β-TC-6) was performed according to the method described in PLoS ONE. 2010, 5 (9): e12734.
8.5×10^6 of mouse beta pancreatic tumor cells β-TC-6 (purchased from ATCC) were collected, centrifuged and fixed with 8.5 ml of fixative (IC Fixation buffer, purchased from Invitrogen Co.) (4° C., 10 min). The resultant cells were centrifuged again, resuspended with 3.4 ml of PBS, and seeded at a density of 2.5×10^5 cells/well (100 μl) in a 96-well U-shaped plate. In the meantime, the three fusion proteins of the present invention were diluted 4-fold with PBS starting from 500 μg/ml to obtain a total of 10 gradients, respectively.
The cells in the 96-well U-shaped plate were centrifuged and the supernate was removed. The diluted fusion proteins were added at 100 μl/well into the plate, and then the plate was incubated at 4° C. for 1 hour. The cells were centrifuged again to remove the supernate, and washed with 200 μl/well of PBS twice. […] The absorbance at a wavelength of 450/570 nm was read on a M5 multifunctional microplate reader (purchased from Molecular Devices Co.), and the results are shown in FIG. 4.

Row | Molecule | binding activity to GLP-1R on the surface of β-TC-6 cells
1 | B1 | specific binding activity
2 | B2 | specific binding activity
